## Binding of CDR-mutated scFvs to a peptide of the spike HR2 region

Binding partner: SARS-CoV-2 spike HR2 peptide, sequence PDVDLGDISGINAS.

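Phage display of a naive human antibody library on the peptide gave the parent. AAYL51 was designed without a model: most single CDR substitutions and a random sample of double and triple ones. In AlphaSeq, yeast of one mating type display the scFv and yeast of the other type display the target. After mating in shaken culture at 30 °C for 16 h, diploids were selected and their barcode pairs sequenced. A regression on co-assayed BCL2-family reference pairs converts the normalised counts of each replicate to an apparent Kd. Each pool was mated in three replicate cultures.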

Parent scFv Ab-91: VL joined to VH by the linker GGGGSGGGGSGGGGS. Changes lie in the heavy chain CDRs alone.
VL: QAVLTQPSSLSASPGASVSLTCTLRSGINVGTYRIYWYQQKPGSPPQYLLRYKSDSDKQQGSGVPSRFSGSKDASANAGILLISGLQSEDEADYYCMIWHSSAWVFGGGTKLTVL
VH: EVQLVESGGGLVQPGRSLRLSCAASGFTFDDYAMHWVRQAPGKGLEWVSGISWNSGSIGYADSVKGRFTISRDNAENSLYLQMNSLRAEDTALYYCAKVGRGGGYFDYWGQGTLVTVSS

Positions count from residue 1 of the parent VH; G50Q puts Q in place of G. Numbers give log10(Kd / nM), so 0 is 1 nM and 3 is 1 µM. Smaller is tighter. Averages over replicates are reported, and they cover detected replicates only. An entry "nd" has no value in the source: the pair was not observed among the diploids in any replicate. This suggests poor binding but is not conclusive. In this assay the parent's reference entry averaged 1.86; its copy inside this library read 0.88.

changes	mean log10 Kd (nM)	seen in
G50Q+S57A	3.94	1 of 3
H35R+G50E+V99C	3.91	1 of 3
D30Y+Y32D+I51L	3.44	1 of 3
G56C+K65T+F106K	1.48	3 of 3
F29K+N54E+G102L	nd	0 of 3
F27T+F29D+A61V	2.92	1 of 3
N54H+V64G	nd	0 of 3
S57G+Y105I+F106W	nd	0 of 3
G26F+N54V+S55P	nd	0 of 3
D30R+Y32D+G104E	3.17	1 of 3
M34S+S55I+G59R	2.66	1 of 3
A33S+N54M+F106L	4.55	3 of 3
T28E+H35F+Y105N	4.66	2 of 3
D30F+A33W+Y60F	nd	0 of 3
I58W+Y108H	1.69	3 of 3
G102R+G103A+D107R	nd	0 of 3
T28L+S57H	4.03	2 of 3
G56K+R101A	5.15	2 of 3
S55N+Y60W+R101P	nd	0 of 3
S55V+Y105E+F106P	5.66	1 of 3
M34V+D62R+D107S	nd	0 of 3
G26D+D31C+S57F	4.81	1 of 3
A33K+N54C+D62P	4.19	1 of 3
F27A+S55P+F106W	5.31	1 of 3
A61L+G102M+D107F	2.71	3 of 3
D31M+Y32W+F106R	3.08	3 of 3
D62T+R101S+Y105G	nd	0 of 3
F29I+Y60T+V64F	1.70	3 of 3
M34Y+W53G+Y105V	3.09	1 of 3
D30A+D31A+R101M	4.67	1 of 3
A33M+G100F	nd	0 of 3
T28K+A61I+V99I	0.92	3 of 3
F29V+F106P+D107F	3.56	1 of 3
V64E+V99N+G100V	4.92	2 of 3
F29P+S57P+G59M	nd	0 of 3
D62R+V64I+G104D	nd	0 of 3
M34E+Y105H+D107R	nd	0 of 3
G26I+W53C	3.41	2 of 3
H35E+S52L+A61F	5.27	2 of 3
A33K+M34G+S52E	nd	0 of 3
G103Y+G104F+D107R	nd	0 of 3
S63E+Y105E	nd	0 of 3
T28I+F29R+A61R	6.17	1 of 3
D31W+S52R+A61L	4.46	1 of 3
D31V+A33R+I51Q	nd	0 of 3
T28P+Y60L+K65I	3.76	1 of 3
I51H+S55V+G103Y	nd	0 of 3
F27S+I51P+G100V	4.45	2 of 3
S52N+W53F+I58A	2.94	3 of 3
A33L+I58Y+Y105F	3.70	1 of 3
F27R+W53T+D62A	5.24	2 of 3
S55M+V64M+R101I	4.04	1 of 3

From the list, the first 4 with no signal in any replicate:

{"changes": "F29K+N54E+G102L", "mean log10 Kd (nM)": "nd", "seen in": "0 of 3"}
{"changes": "N54H+V64G", "mean log10 Kd (nM)": "nd", "seen in": "0 of 3"}
{"changes": "S57G+Y105I+F106W", "mean log10 Kd (nM)": "nd", "seen in": "0 of 3"}
{"changes": "G26F+N54V+S55P", "mean log10 Kd (nM)": "nd", "seen in": "0 of 3"}

As a blank, each scFv also met three strains without target: over library AAYL51, 21% of these pairings were detected, typically at 4.54 and seldom below 3.26.

The measurements come from Engelhart et al. 2022 (doi:10.1038/s41597-022-01779-4) through the FLAb antibody collection.